Literature values in paper PMC9046186, “A distinctive ligand recognition mechanism by the human vasoactive intestinal polypeptide receptor 2” (Nature Communications, 2022).

Biological target: T1, PAC1R (Homo sapiens, UniProt P41586)
T1 construct: expressed in transfected cells; host or cells: CHO-K1
T1 sequence (P41586 21-468): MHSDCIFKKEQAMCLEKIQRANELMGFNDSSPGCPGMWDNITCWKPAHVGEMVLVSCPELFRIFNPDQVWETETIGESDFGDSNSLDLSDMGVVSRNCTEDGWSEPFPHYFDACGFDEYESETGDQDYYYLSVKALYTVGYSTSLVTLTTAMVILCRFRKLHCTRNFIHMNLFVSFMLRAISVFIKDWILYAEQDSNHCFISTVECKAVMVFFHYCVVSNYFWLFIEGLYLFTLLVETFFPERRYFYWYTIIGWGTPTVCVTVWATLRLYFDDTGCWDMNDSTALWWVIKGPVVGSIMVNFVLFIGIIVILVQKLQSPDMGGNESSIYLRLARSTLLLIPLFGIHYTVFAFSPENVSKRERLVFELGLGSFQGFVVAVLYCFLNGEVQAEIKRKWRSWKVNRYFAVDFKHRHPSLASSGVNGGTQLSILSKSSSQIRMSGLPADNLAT
Settings: more potent than VIP; introduction, Fig. 1a, b; no reference given

For “pituitary adenylate cyclase-activating polypeptide [PACAP38]”, the “potency relative to VIP at PAC1R” value is listed as 50 to 400 fold.
